Our source for the IC50 values is patent US9630961B2, “Arginine methyltransferase inhibitors and uses thereof” (Epizyme, Inc., priority 2013, dated 2017).

The chains behind the UniProt entries cited, without tags or fusion partners. A line that says so, or that is headed by a name, gives the form on record, which may keep a tag or linker. Residues count along the entry.
UniProt Q99873, 1-371 with tags or gaps: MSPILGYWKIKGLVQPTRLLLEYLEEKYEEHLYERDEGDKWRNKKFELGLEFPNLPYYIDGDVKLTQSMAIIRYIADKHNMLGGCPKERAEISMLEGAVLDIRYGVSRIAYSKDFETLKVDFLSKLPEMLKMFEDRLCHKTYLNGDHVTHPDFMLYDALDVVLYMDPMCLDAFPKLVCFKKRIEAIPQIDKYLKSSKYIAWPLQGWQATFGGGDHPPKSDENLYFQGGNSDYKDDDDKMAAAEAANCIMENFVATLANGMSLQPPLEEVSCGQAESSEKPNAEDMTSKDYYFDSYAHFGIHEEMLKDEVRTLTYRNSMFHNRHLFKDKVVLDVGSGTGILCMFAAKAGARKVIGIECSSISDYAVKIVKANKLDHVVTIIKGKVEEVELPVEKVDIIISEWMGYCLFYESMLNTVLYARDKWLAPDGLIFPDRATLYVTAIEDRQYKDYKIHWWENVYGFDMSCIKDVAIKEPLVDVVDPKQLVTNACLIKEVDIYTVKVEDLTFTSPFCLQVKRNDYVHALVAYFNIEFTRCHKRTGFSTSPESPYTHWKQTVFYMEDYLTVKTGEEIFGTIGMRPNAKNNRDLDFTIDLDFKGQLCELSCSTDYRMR

The assay addresses PRMT1 (Homo sapiens, UniProt Q99873). Kind of assay: PRMT1 Biochemical Assay (3H-SAM Flashplate, peptide substrate). The settings on record: read-out: Biochemical IC50 PRMT1; 30 min preincubation, room temperature. The source says:
S-adenosylmethionine (SAM), S-adenosylhomocysteine (SAH), bicine, Tween20, dimethylsulfoxide (DMSO), bovine skin gelatin (BSG), and Tris(2-carboxyethyl)phosphine hydrochloride solution (TCEP) were purchased from Sigma-Aldrich at the highest level of purity possible. ^3H-SAM was purchase from American Radiolabeled Chemicals with a specific activity of 80 Ci/mmol. 384-well streptavidin Flashplates were purchased from PerkinElmer.
Peptide representative of human histone H4 residues 36-50 was synthesized with an N-terminal linker-affinity tag motif and a C-terminal amide cap by 21st Century Biochemicals. The peptide was purified by high-performance liquid chromatography (HPLC) to greater than 95% purity and confirmed by liquid chromatography mass spectrometry (LC-MS). The sequence was Biot-Ahx-RLARRGGVKRISGLI-amide (SEQ ID NO.: 1).
Full-length human PRMT1 isoform 1 (NM_001536.5) transcript clone was amplified from an HEK 293 cDNA library, incorporating flanking 5′ sequence encoding a FLAG tag (DYKDDDDK) (SEQ ID NO.:2) fused directly to Met 1 of PRMT1. The amplified gene was subcloned into pFastBacI (Life Technologies) modified to encode an N-terminal GST tag and a TEV cleavage sequence ([…] […] […] […]) (SEQ ID NO.:3) fused to Asp of the Flag tag of PRMT1.
Recombinant baculovirus were generated according to Bac-to-Bac kit instructions (Life Technologies). […]

Some results are limits rather than exact numbers.

One may read the IC50 as the point on the concentration scale where inhibition reaches its midpoint. On to `CNCCN(C)Cc1c[nH]nc1-c1csc2ccccc12`, for which the IC50 was less than 100 nM.
The figure for `CNCCN(C)Cc1c[nH]nc1-c1cncnc1` is 101 to 1000 nM.
